The target of the assay is hSERT (Homo sapiens, UniProt P31645). Briefly: oscillating stimulus transporter assay.

Protein sequences, listed by entry. Tags and fused reporters are not part of them.
UniProt P31645, whole entry: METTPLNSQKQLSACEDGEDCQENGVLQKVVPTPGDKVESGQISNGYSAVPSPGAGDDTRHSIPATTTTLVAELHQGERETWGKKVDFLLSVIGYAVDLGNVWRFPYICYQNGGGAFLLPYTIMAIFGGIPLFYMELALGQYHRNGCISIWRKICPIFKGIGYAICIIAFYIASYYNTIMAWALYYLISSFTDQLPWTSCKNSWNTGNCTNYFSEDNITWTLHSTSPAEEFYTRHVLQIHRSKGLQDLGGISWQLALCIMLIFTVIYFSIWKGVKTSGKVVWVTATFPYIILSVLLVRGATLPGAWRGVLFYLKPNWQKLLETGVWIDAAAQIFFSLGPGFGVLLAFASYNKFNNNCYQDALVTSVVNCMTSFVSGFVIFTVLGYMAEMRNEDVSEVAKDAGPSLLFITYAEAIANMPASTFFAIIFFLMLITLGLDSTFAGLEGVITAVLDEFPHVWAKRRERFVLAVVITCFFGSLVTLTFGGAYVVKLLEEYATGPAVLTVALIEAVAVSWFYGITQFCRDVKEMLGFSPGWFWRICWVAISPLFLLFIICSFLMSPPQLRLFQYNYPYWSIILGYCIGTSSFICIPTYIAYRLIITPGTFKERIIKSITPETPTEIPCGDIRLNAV

The term Km denotes the concentration of substrate that gives half-maximal velocity.

In the case of `[Na]` [sodium], the “Hill coefficient for sodium in 5-HT uptake” value is reported as 1.9 ± 0.1. For the same compound, the Km (read-out: hSERT Km for sodium in 5-HT uptake) worked out at 6.5 ± 0.1 mM.

The values above are taken from PMC8025677 (Cell, 2020).
